Measured values from publication PMC11786100, “Chronic GIPR agonism results in pancreatic islet GIPR functional desensitisation” (Molecular Metabolism, 2025).

Chains of the proteins cited; added tags and fusions are not shown. Residues count along the entry.
UniProt P43220, 24-463: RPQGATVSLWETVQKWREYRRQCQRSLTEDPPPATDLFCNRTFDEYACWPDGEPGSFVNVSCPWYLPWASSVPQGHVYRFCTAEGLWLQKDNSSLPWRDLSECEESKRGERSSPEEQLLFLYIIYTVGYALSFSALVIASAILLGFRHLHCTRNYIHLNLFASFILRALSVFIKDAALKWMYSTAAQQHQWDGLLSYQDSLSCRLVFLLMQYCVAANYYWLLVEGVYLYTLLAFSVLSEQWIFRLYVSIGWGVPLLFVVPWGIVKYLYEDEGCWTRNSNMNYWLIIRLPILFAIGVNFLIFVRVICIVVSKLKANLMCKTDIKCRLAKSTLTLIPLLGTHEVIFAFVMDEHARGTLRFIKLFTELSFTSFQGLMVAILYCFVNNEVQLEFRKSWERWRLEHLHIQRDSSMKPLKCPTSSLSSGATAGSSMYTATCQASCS

Assays:
SNAP-tagged human GLP-1R [1] = target: T1, SNAP-tagged human GLP-1R (Homo sapiens, UniProt P43220); assay: β-arrestin-2 activation assay (Borealis sensor) in AD-293 cells; type: cell-based; conditions: 10 nM, 30-minute stimulation, n = 5–6
T1 construct: host or cells: AD-293

SNAP-tagged human GLP-1R [2] = target: T1, SNAP-tagged human GLP-1R; assay: Internalisation and receptor surface expression assays in AD-293 cells; type: cell-based; conditions: 10 nM

β-arrestin-2 activation compared to vehicle control (SNAP-tagged human GLP-1R [1]): significant β-arrestin-2 activation
Substance: GLP-1(7–36)·NH2
receptor internalisation compared to vehicle (SNAP-tagged human GLP-1R [2]; 1-hour treatment, n = 3–4): significantly increased both mouse and human GLP-1R internalisation | receptor internalisation (surface expression) compared to vehicle (SNAP-tagged human GLP-1R [2]; 4-hours treatment, n = 7–8): significantly increased both mouse and human GLP-1R internalisation
